The record followed here is PubChem BioAssay AID463079 (The Scripps Research Institute Molecular Screening Center, 2010).

The list shows a part of the results, in another mix than the full data. Activity calls are given as the source filed them.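 Rule for the calls: active = inhibition above that plate's mean sample inhibition plus 3 SD (cut at about 26% in these data); inactive = the rest.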

In general, inhibition refers to the change of the read-out against control, counted positive when it falls.

The nature of this assay: nonselective Gq signaling inhibition in CHO cells – cell-based, fluorescence, Fluo-8 calcium dye, counter-screen for OX1R antagonist project, primary screen (AID 463079).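 Note: 0% = ATP-challenged DMSO wells and 100% = DMSO wells without ATP.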 As to conditions: parental CHO-K1, ATP-induced calcium, Fluo-8 fluorescence; at 5.6 µM; active compounds read high. Summed up: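 Material: Parental CHO cells | Reagent: ATP | Compound dosing: Single nominal dose of 5.6 µM per compound | Detection: Intracellular calcium via Fluo-8 no-wash fluorescent dye | Read-out: % inhibition of ATP-induced calcium mobilization | Benchmarks: Low control ATP plus DMSO, high control DMSO only | Replicates: Singlicate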
For `CC(=O)Nc1ccc([As](=O)(O)O)c(O)c1`, the inhibition was inactive: -4.46%.

Regarding `CC(=O)Nc1ccc(Oc2c([N+](=O)[O-])cc([N+](=O)[O-])cc2[N+](=O)[O-])cc1`, the inhibition was inactive: 13.9%.

`Cc1ccccc1CN(C)C(=O)COC(=O)C(O)(c1ccccc1)c1ccccc1`: the inhibition is inactive: -20.5%.

For `C[C@H]1OP(=O)(Oc2ccccc2)C[C@@H]2O[C@@H]21` (stereo not given in full), the inhibition was inactive: -0.64%.

With `C[C@@H]1C=CCP(=O)(Oc2ccccc2)O1` (stereo not given in full), the inhibition is inactive: -1.47%.

As for `CC(=O)c1ccc(N2CC2c2ccncc2)cc1` (stereo not given), the inhibition was inactive: -5.45%.

In the case of `CC(C)(C)C(=O)NC(Sc1ccccc1)C(Cl)(Cl)Cl` (stereo not given), the inhibition is inactive: -16.9%.

`O=P1(Nc2nc3ccc(Cl)cc3s2)COc2ccccc2O1` (stereo not given): the inhibition is inactive: -9.51%.

For `CCOc1ccc(C2=NCC(CBr)S2)cc1` (stereo not given), the inhibition was inactive: -19.1%.

`CC(NC(=O)COC(=O)C(O)(c1ccccc1)c1ccccc1)c1ccccc1` (stereo not given): the inhibition was inactive: -10.6%.

Consider `Cc1ccccc1OP(=O)(Nc1ccccn1)Oc1ccccc1C`, for which the inhibition was inactive: -13.8%.

On to `CN(C)C(=O)Oc1noc2ccccc12`, for which the inhibition is inactive: 4.39%.

Turning to `O=C(OC1CN2CCC1CC2)c1ccccc1` (stereo not given), the inhibition is inactive: 2.78%.

For the compound `CCC(=O)N1C2C3N(C(=O)CC)C1C1N(C(=O)CC)C(C(N1C(=O)CC)N3C(=O)CC)N2C(=O)CC`, the inhibition is inactive: -3.61%.

On to `COC(=O)c1cc2c(s1)N=C(c1ccccc1)N(C)P2(=O)N1CCOCC1` (stereo not given), for which the inhibition was inactive: -18.4%.

With `Cc1ccc(OP(=O)(Nc2ccccn2)Oc2ccc(C)cc2)cc1`, the inhibition is inactive: -7.18%.

Take `CC(=O)NC(SC(=S)N(CC(C)C)CC(C)C)C(Cl)(Cl)Cl` (stereo not given): the inhibition was inactive: -0.78%.

As for `c1ccc(-c2nn[nH]n2)c(-c2nn[nH]n2)c1`, the inhibition was inactive: -17.7%.

In the case of `CCOC(=O)NC(Sc1ccccc1)C(Cl)(Cl)Cl` (stereo not given), the inhibition was inactive: -7.51%.

On to `Cc1ccc(NP(=O)(Oc2cccc(C)c2)Oc2cccc(C)c2)nc1`, for which the inhibition is inactive: -12.9%.

`O=C(NC1CCS(=O)(=O)C1)NP(=S)(Oc1ccccc1)Oc1ccccc1` (stereo not given): the inhibition was inactive: -3.9%.

On to `CCNC(=S)/N=C(\N)N[N+](=O)[O-]`, for which the inhibition was inactive: -9.77%.

For the compound `O=C(OC1CN2CCC1CC2)c1cccc(Cl)c1` (stereo not given), the inhibition is inactive: -5.64%.

Consider `C(Cc1nn[nH]n1)Cc1nn[nH]n1`, for which the inhibition was inactive: -3.41%.

As for `Nc1ccc([As](=O)(O)c2ccc([N+](=O)[O-])cc2)cc1`, the inhibition was inactive: -2.21%.

In the case of `O=[As](O)(c1ccccc1)c1ccc(O)cc1`, the inhibition is inactive: -3.21%.

On to `O=[N+]([O-])c1ncn(CCn2cnc([N+](=O)[O-])n2)n1`, for which the inhibition is inactive: 0.93%.

As to `CC(=O)NC(SC(=S)N(C)C)C(Cl)(Cl)Cl` (stereo not given), the inhibition is inactive: -4.03%.

Regarding `O=[N+]([O-])c1ccc(O)c(/C=N/Nc2ccc([N+](=O)[O-])cc2[N+](=O)[O-])c1`, the inhibition is inactive: -0.21%.

As to `O=P(Nc1nc2ccccc2s1)(c1ccccc1)c1ccccc1`, the inhibition is inactive: -9.65%.

Turning to `C[C@H]1OP(=O)(Oc2ccccc2)[C@H](O)[C@H](O)[C@H]1N=[N+]=[N-]` (stereo not given in full), the inhibition is inactive: -1.35%.

Regarding `CN(C)C1(CNC(=O)c2ccc(Cl)c(S(N)(=O)=O)c2)CCCCC1`, the inhibition was inactive: -6.93%.

Take `O=P(Nc1ccccn1)(c1ccc(Br)cc1)c1ccc(Br)cc1`: the inhibition is inactive: -8.78%.

With `c1nnnn1CCn1cnnn1`, the inhibition was inactive: 1.41%.

On to `O=P(Nc1nccs1)(c1ccccc1)c1ccccc1`, for which the inhibition is inactive: -14.6%.

Consider `CC(C)C(=O)NC(Sc1ccccc1)C(Cl)(Cl)Cl` (stereo not given), for which the inhibition was inactive: -7.19%.

`CC1CCN(C(=O)Oc2c(Cl)cc(Cl)c3cccnc23)CC1`: the inhibition is inactive: -23.2%.

`CC(C)=N/N=C(\N)N[N+](=O)[O-]`: the inhibition was inactive: 1.76%.

As to `CN(C)C(=O)OCCc1n(C)cc[n+]1C`, the inhibition was inactive: -7.57%.

As to `CCN(/C(=N/P(=O)(N1CCOCC1)N1CCOCC1)N1CCOCC1)c1ccc(OC)cc1`, the inhibition is inactive: -7.33%.

For `Nc1ccc([As](=O)(O)c2ccc(N)cc2)cc1`, the inhibition was inactive: -0.7%.

Turning to `C[N+]1=C2C=CC=CC=C2SC12C([N+](=O)[O-])=CC([N+](=O)[O-])=C[C-]2[N+](=O)[O-]` (stereo not given), the inhibition is active: 43.3%.

As for `Cc1ccc(NP(=O)(Oc2ccccc2)Oc2ccccc2)nc1`, the inhibition was inactive: -16.1%.

As for `O=[N+]([O-])c1cc([N+](=O)[O-])c(CCNc2ccccc2)c([N+](=O)[O-])c1`, the inhibition was inactive: 10.9%.

On to `CCc1nc2c(n1)c1c(non1O)c1c2no[n+]1[O-]`, for which the inhibition is inactive: -15.4%.

On to `CC(=O)N1C2C3N(C(C)=O)C1C1N(C(C)=O)C(C(N1C(C)=O)N3C(C)=O)N2C(C)=O`, for which the inhibition is inactive: -13%.

On to `O=[N+]([O-])c1cccc2n[nH]nc12`, for which the inhibition was inactive: 0.96%.

Take `COc1ccc(C2=NCC(CBr)S2)cc1` (stereo not given): the inhibition was inactive: -13.3%.

As to `O=[N+]([O-])c1cccc(NC2=NCC(CBr)S2)c1` (stereo not given), the inhibition was inactive: -20.6%.

Consider `O=[N+]([O-])c1ncn(CCn2ncnc2[N+](=O)[O-])n1`, for which the inhibition was inactive: 9.99%.

For the compound `CC(C)(C)C(=O)NC(Sc1ccncn1)C(Cl)(Cl)Cl` (stereo not given), the inhibition is inactive: -2.58%.

Consider `O=C(Nc1cc([As](=O)(O)O)ccc1O)c1ccccc1`, for which the inhibition is inactive: 5.91%.

For `CCN(N=Nc1nonc1N)c1nonc1N`, the inhibition is inactive: 1.43%.

Take `O=[N+]([O-])c1cc([N+](=O)[O-])c(CCN2CCOCC2)c([N+](=O)[O-])c1`: the inhibition is inactive: 4.05%.

Consider `Cc1cc(SC(NC(=O)c2ccc(F)cc2)C(Cl)(Cl)Cl)ncn1` (stereo not given), for which the inhibition is inactive: -6.05%.

Take `CCOP(=O)(Nc1ccccc1)OCC`: the inhibition was inactive: -2.85%.

Regarding `CN(C(=O)Cc1ccc(Cl)c(Cl)c1)[C@H]1CCCC[C@@H]1N1CCCC1`, the inhibition was inactive: -15.2%.

Regarding `Cc1ccc(NP(=O)(Oc2ccccc2F)Oc2ccccc2F)nc1`, the inhibition is inactive: -11.2%.

As for `O=P(Nc1nc2ccc(Cl)cc2s1)(c1ccccc1)c1ccccc1`, the inhibition was inactive: 1.31%.

With `CC(=O)Nc1ccc([As](=O)(O)O)cc1`, the inhibition is inactive: -5.85%.

`O=C(O)c1ccccc1[As](=O)(O)O`: the inhibition was inactive: -13.1%.

Consider `Oc1ccccc1CNc1ccccn1`, for which the inhibition is inactive: 1.5%.

Turning to `O=C(NC(Sc1ccncn1)C(Cl)(Cl)Cl)c1ccccc1` (stereo not given), the inhibition is inactive: 4%.

On to `Cc1c2non([O-])c-2c(C)[n+](=O)[n+]1[O-]`, for which the inhibition was inactive: -1.24%.

Consider `Nc1cc(N)c2nonc2c1[N+](=O)[O-]`, for which the inhibition is inactive: -7.94%.

For `CC(C)CC(=O)NC(Sc1ccc(Cl)cc1)C(Cl)(Cl)Cl` (stereo not given), the inhibition is inactive: -15.5%.

In the case of `CN1CCCC(OC(=O)C(c2ccccc2)c2ccccc2)C1` (stereo not given), the inhibition was inactive: -20.9%.

As to `Clc1ccc(Cl)c(NC2=NCC(CBr)S2)c1` (stereo not given), the inhibition was inactive: -15.5%.

On to `COc1ccccc1OP(=O)(Nc1ccc(C)cn1)Oc1ccccc1OC`, for which the inhibition is inactive: -8.36%.

As for `Cc1ccc(OP(=O)(Nc2nccs2)Oc2ccc(C)cc2)cc1`, the inhibition is inactive: -25.3%.

As to `CN(C(=O)Cc1ccc(Cl)c(Cl)c1)[C@H]1CCCC[C@H]1N1CCCC1`, the inhibition is inactive: -18.1%.

On to `Cc1ccc(N/C(=N/P(=O)(N2CCOCC2)N2CCOCC2)N2CCOCC2)cc1`, for which the inhibition was inactive: -4.99%.

For `NC(=O)c1cc([N+](=O)[O-])cc([N+](=O)[O-])c1N`, the inhibition was inactive: 4.43%.

Turning to `COc1ccc(N/C(=N/P(=O)(N2CCOCC2)N2CCOCC2)N2CCOCC2)cc1`, the inhibition was inactive: 2.44%.

For the compound `COc1ccc2nc(NP(=O)(c3ccccc3)c3ccccc3)sc2c1`, the inhibition was inactive: -11.5%.

Consider `COc1cc(I)ccc1[As](=O)(O)O`, for which the inhibition is inactive: -8.98%.

Turning to `Cc1c2c(nc3ccccc13)SC(C(Cl)Cl)C2` (stereo not given), the inhibition was inactive: -18.3%.

In the case of `O=C(OC1CN2CCC1CC2)C12CC3CC(CC(C3)C1)C2` (stereo not given), the inhibition is inactive: -11.1%.

Regarding `Cc1cc(=O)[nH]c(N[N+](=O)[O-])n1`, the inhibition was inactive: 4.24%.

Regarding `CC(C)NC(=O)NP(=O)(Oc1ccccc1)Oc1ccccc1`, the inhibition is inactive: -4.05%.

As for `CCN(CC)C(=S)SC(NC=O)C(Cl)(Cl)Cl` (stereo not given), the inhibition was inactive: -4.36%.

Turning to `O=[N+]([O-])c1cc([N+](=O)[O-])c(-c2ccn[nH]2)s1`, the inhibition was inactive: -2.69%.

In the case of `ClCCSc1nnc(-c2cccnc2)o1`, the inhibition was inactive: -2.75%.

As to `CC(C)c1ccc(OP(=O)(Nc2ccccn2)Oc2ccccc2F)cc1` (stereo not given), the inhibition is inactive: -9.32%.

With `Cc1ccc(OP(=O)(Nc2ccc([N+](=O)[O-])cn2)Oc2ccc(C)cc2)cc1`, the inhibition is inactive: -1.61%.

For the compound `Cc1ccc2nc3c(c(C)c2c1)CC(C(Cl)Cl)S3` (stereo not given), the inhibition is inactive: -24.6%.

On to `C[As](=O)(O)c1cccc(C(=O)O)c1`, for which the inhibition is inactive: -6.86%.

In the case of `O=[As](O)(c1ccc(O)cc1)c1ccccc1O`, the inhibition was inactive: -4.14%.

Regarding `COc1cc(C(=O)NCC2(N3CCOCC3)CCCCC2)ccc1OCC(C)C`, the inhibition was inactive: -15%.

With `Cc1cc(SC(NC=O)C(Cl)(Cl)Cl)ncn1` (stereo not given), the inhibition was inactive: 1.48%.

Take `O=P(Nc1ccccn1)(c1cccc2ccccc12)c1cccc2ccccc12`: the inhibition is inactive: -33.3%.

Turning to `CCOC(=O)Nc1cccc([As](=O)(O)O)c1`, the inhibition is inactive: -0.99%.

Consider `Cc1cc(SC(NC(=O)c2ccccc2)C(Cl)(Cl)Cl)nc(C(C)C)n1` (stereo not given), for which the inhibition is inactive: -16.2%.

For `CCOC(=O)Nc1ccc([As](=O)(O)O)c(O)c1`, the inhibition was inactive: 2.61%.

Consider `CCC(C)N(CC(C)C)C(=S)SC(NC(C)=O)C(Cl)(Cl)Cl` (stereo not given), for which the inhibition was inactive: -0.03%.

With `O=C(OC1CN2CCC1CC2)c1cccc([N+](=O)[O-])c1` (stereo not given), the inhibition is inactive: -6.23%.

Take `CCOC(=O)c1ccc(NC(=O)C(C)(CCl)SC)cc1` (stereo not given): the inhibition is inactive: -9.97%.

Regarding `O=C(COc1ccccc1)OC1CN2CCC1CC2` (stereo not given), the inhibition was inactive: -4.75%.

Regarding `O=C(Nc1ccncc1[N+](=O)[O-])c1ccc([N+](=O)[O-])cc1[N+](=O)[O-]`, the inhibition was inactive: -8.48%.

`COP1(=S)c2c(C)nn(CCC#N)c2N=C(c2ccc(F)cc2)N1C` (stereo not given): the inhibition was inactive: -13.8%.
